Molecular target: human APJ-AT1R (angiotensin Type 1) double stable CHO cell line (Homo sapiens (Human), UniProt P30556+P35414)
Settings: added in the presence of AngII and APJ small molecule agonists

Protein sequences, listed by entry. Tags and fused reporters are not part of them. Lines headed by an entry give the natural chain unless they say otherwise; changes in a name come on top.
UniProt P35414: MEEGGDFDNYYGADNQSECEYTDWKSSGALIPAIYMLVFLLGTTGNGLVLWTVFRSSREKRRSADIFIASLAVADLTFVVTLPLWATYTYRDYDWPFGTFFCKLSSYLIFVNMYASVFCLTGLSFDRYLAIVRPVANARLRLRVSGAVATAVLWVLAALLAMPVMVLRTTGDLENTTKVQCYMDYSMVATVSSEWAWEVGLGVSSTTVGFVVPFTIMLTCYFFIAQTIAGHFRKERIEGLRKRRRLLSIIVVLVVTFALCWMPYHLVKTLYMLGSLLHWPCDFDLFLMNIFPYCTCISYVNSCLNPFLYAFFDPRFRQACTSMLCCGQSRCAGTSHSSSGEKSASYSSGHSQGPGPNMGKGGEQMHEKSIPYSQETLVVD

Structure (SMILES): CCCCc1nc(Cl)c(CO)n1Cc1ccc(-c2ccccc2-c2nn[nH]n2)cc1 [losartan]
- effect of AT1R blockade on APJ/AT1R cooperativity and APJ efficacy: relieved this cooperativity and resulted in synergistic effects of enhancing the efficacy of the APJ receptor

— patent US10689367B2, “Triazole pyridyl compounds as agonists of the APJ receptor” (AMGEN INC., priority 2016, dated 2020)
